# Test results as given in ChEMBL document CHEMBL1128243, “Three-dimensional quantitative structure-activity relationships of sulfonamide endothelin inhibitors” (J Med Chem, 1995).
# Protein sequences, listed by entry. Tags and fused reporters are not part of them.
# UniProt P26684, whole entry: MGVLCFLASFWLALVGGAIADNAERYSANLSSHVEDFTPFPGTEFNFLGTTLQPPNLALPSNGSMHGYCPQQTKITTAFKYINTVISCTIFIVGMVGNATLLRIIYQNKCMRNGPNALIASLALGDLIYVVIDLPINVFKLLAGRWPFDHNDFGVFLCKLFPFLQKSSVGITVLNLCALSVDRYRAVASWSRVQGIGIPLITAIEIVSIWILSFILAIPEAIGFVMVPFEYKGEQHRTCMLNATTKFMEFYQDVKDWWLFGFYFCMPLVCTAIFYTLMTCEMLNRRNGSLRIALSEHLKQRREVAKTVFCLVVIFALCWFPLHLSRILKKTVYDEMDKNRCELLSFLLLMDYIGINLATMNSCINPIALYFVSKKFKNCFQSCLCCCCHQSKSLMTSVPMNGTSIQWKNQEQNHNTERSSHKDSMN
# pIC50: −log10 of the molar value.
# Target: Endothelin-1 receptor (Rattus norvegicus, UniProt P26684)
# Test: Inhibition of [125I]endothelin-l binding to endothelin A receptor of rat thoracic aorta smooth muscle cells
# Type: tissue-based
# Method in brief: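 Membranes from A10 rat thoracic aorta smooth muscle cells (cultured, trypsin-detached, stored at -70 °C, then thawed, homogenized and centrifuged to a membrane pellet). Samples filtered through glass fiber filters and washed, then filter-retained radioactivity counted.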
row,SMILES,pIC50
1,Cc1noc(NS(=O)(=O)c2cccc3c(O)cccc23)c1C,7.17
2,Cc1cc(NS(=O)(=O)c2ccc(N)cc2)no1 [SULFAMETHOXAZOLE],5.40
